Here are results for 1 compound from patent EP4847044A1, “PHARMACEUTICAL COMPOSITION COMPRISING PRMT5 INHIBITOR AND CHEMOTHERAPEUTIC AGENT” (dated 2026).

In experiment [1] the test system is NCI-H292 MTAP (-/-) deleted cells. The experiment in a line: Cell proliferation inhibition (CTG luminescence, 144 hours), single agents and combination test, CI by Calcusyn. The settings on record: single agent.
Experiment [2] relates to LU99 MTAP (-/-) deleted cells. Described as above. The settings on record: single agent.

For the compound `CC(=O)O[C@@]12CO[C@@H]1C[C@H](O)[C@@]1(C)C(=O)[C@H](O)C3=C(C)[C@@H](OC(=O)[C@H](O)[C@@H](NC(=O)OC(C)(C)C)c4ccccc4)C[C@@](O)([C@@H](OC(=O)c4ccccc4)[C@H]21)C3(C)C`, the results for the IC20 in experiment [1] and in experiment [2] were 0.63 nM and 1.28 nM, respectively. The “Max Inh%” value in experiment [2] (maximum inhibition rate) is on record as 100%.
